Laboratory results taken from patent publication USRE47739E1, “2-(pyridin-2-ylamino)-pyrido[2,3-D]pyrimidin-7-ones” (Warner-Lambert Company LLC, priority 2002, dated 2019).
Structures can show the parent of a compound that is named as a salt.

Target: Cdk2/Cyclin A (Homo sapiens, UniProt P24941)
Assay: Assay for Inhibition of Cdk2/Cyclin A
Assay type: biochemical
Details: 12 mM ATP (so in the source), retinoblastoma protein substrate, 25° C., 15 minutes
Description: The assays were carried out as described below.
Assay for Inhibition of Cdk2/Cyclin A
Cdk2 enzyme assays for IC50 determinations and kinetic evaluation are performed as follows. 96-well filter plates (Millipore MADVN6550) are used. […] All components except the ATP are added to the wells, and the plate is placed on a plate mixer for 2 minutes. The reaction is initiated by addition of [^32P]ATP, and the plate is incubated at 25° C. for 15 minutes. The reaction is terminated by addition of 0.1 mL 20% TCA. The plate is kept at 4° C. for at least 1 hour to allow the substrate to precipitate. The wells are then washed five times with 0.2 mL 10% TCA, and ^32P incorporation is determined with a beta plate counter (Wallac Inc., Gaithersburg, Md.).

IC50 [µM]	SMILES
> 5	O=c1c(F)cc2cnc(Nc3ccc(N4CCNCC4)cn3)nc2n1C1CCCC1 [Example 18, 8-Cyclopentyl-6-fluoro-2-(5-piperazin-1-yl-pyridin-2-ylamino)-8H-pyrido[2,3-d]pyrimidin-7-one hydrochloride]
> 5	CCOCCOc1cc2cnc(Nc3ccc(N4CCNCC4)cn3)nc2n(C2CCCC2)c1=O [Example 53, 8-Cyclopentyl-6-(2-ethoxy-ethoxy)-2-(5-piperazin-1-yl-pyridin-2-ylamino)-8H-pyrido[2,3-d]pyrimidin-7-one]
> 5	O=c1ccc2cnc(Nc3ccc(N4CCNCC4)cn3)nc2n1C1CC1 [Example 64, 8-cyclopropyl-2-(5-piperazin-1-yl-pyridin-2-ylamino)-8H-pyrido[2,3-d]pyrimidin-7-one]
> 5	Cc1c(Br)c(=O)n(C2CCCC2)c2nc(Nc3ccc(N4CCN(C)CC4)cn3)ncc12 [Example 70, 6-Bromo-8-cyclopentyl-5-methyl-2-[5-(4-methyl-piperazin-1-yl)-pyridin-2-ylamino]-8H-pyrido[2,3-d]pyrimidin-7-one]
> 5	Cc1c(Br)c(=O)n(C2CCCC2)c2nc(Nc3ccc(N4CCC(O)CC4)cn3)ncc12 [Example 75, 6-Bromo-8-cyclopentyl-2-(4-hydroxy-3,4,5,6-tetrahydro-2H-[1,3′]bipyridinyl-6′-ylamino)-5-methyl-8H-pyrido[2,3-d]pyrimidin-7-one]
> 5	CC(=O)c1c(C)c2cnc(Nc3ccc(N4CCC(O)CC4)cn3)nc2n(C2CCCC2)c1=O [Example 77, 6-Acetyl-8-cyclopentyl-2-(4-hydroxy-3,4,5,6-tetrahydro-2H-[1,3′]bipyridinyl-6′-ylamino)-5-methyl-8H-pyrido[2,3-d]pyrimidin-7-one]
> 5	CC(=O)c1c(C)c2cnc(Nc3ccc(N4CCNC(C)(C)C4)cn3)nc2n(C2CCCC2)c1=O [Example 90, 6-Acetyl-8-cyclopentyl-2-[5-(3,3-dimethyl-piperazin-1-yl)-pyridin-2-ylamino]-5-methyl-8H-pyrido[2,3-d]pyrimidin-7-one]
> 5	Cc1c(Br)c(=O)n(C2CCCC2)c2nc(Nc3ccc(N4CC(C)NC(C)C4)cn3)ncc12 (stereo not shown) [Example 93, 6-Bromo-8-cyclopentyl-2-[5-(3,5-dimethyl-piperazin-1-yl)-pyridin-2-ylamino]-5-methyl-8H-pyrido[2,3-d]pyrimidin-7-one]
> 5	Cc1c(Br)c(=O)n(C2CCCC2)c2nc(Nc3ccc(N4CCOCC4)cn3)ncc12 [Example 98, 6-Bromo-8-cyclopentyl-5-methyl-2-(5-morpholin-4-yl-pyridin-2-ylamino)-8H-pyrido[2,3-d]pyrimidin-7-one]
> 5	Cc1c(Br)c(=O)n(C2CCCC2)c2nc(Nc3ccc(N4CCCCC4)cn3)ncc12 [Example 103, 6-Bromo-8-cyclopentyl-5-methyl-2-(3,4,5,6-tetrahydro-2H-[1,3]bipyridinyl-6′-ylamino)-8H-pyrido[2,3-d]pyrimidin-7-one]
> 5	COCCOCc1cc2cnc(Nc3ccc(N4CCNCC4)cn3)nc2n(C2CCCC2)c1=O [Example 112, 8-Cyclopentyl-6-(2-methoxy-ethoxymethyl)-2-(5-piperazin-1-yl-pyridin-2-ylamino)-8H-pyrido[2,3-d]pyrimidin-7-one]
> 5	CCOCc1cc2cnc(Nc3ccc(N4CCNCC4)cn3)nc2n(C2CCCC2)c1=O [Example 116, 8-Cyclopentyl-6-ethoxymethyl-2-(5-piperazin-1-yl-pyridin-2-ylamino)-8H-pyrido[2,3-d]pyrimidin-7-one]
> 5	CC(=O)c1c(C)c2cnc(Nc3ccc(N4CC(C)OC(C)C4)cn3)nc2n(C2CCCC2)c1=O (stereo not shown) [Example 130, 6-Acetyl-8-cyclopentyl-2-[5-(2,6-dimethyl-morpholin-4-yl)-pyridin-2-ylamino]-5-methyl-8H-pyrido[2,3-d]pyrimidin-7-one]

The next lines start with the compound.

SMILES	IC50 [µM]
CCOC(=O)c1cc2cnc(Nc3ccc(N4CCNCC4)cn3)nc2n(C2CCCC2)c1=O [Example 7, 8-Cyclopentyl-7-oxo-2-(5-piperazin-1-yl-pyridin-2-ylamino)-7,8-dihydro-pyrido[2,3-d]pyrimidine-6-carboxylic acid ethyl ester hydrochloride]	> 5
Cc1c(Br)c(=O)n(C2CCCC2)c2nc(Nc3ccc(N4CCNCC4)cn3)ncc12 [Example 15, 6-Bromo-8-cyclopentyl-5-methyl-2-(5-piperizin-1-yl-pyridin-2-ylamino)-8H-pyrido[2,3-d]pyrimidin-7-one]	> 5
CC(C)COc1cc2cnc(Nc3ccc(N4CCNCC4)cn3)nc2n(C2CCCC2)c1=O [Example 22, 8-Cyclopentyl-6-isobutoxy-2-(5-piperazin-1-yl-pyridin-2-ylamino)-8H-pyrido[2.3-d]pyrimidin-7-one hydrochloride]	> 5
O=c1c(CO)cc2cnc(Nc3ccc(N4CCNCC4)cn3)nc2n1C1CCCC1 [Example 29, 8-Cyclopentyl-6-hydroxymethyl-2-(5-piperazin-1-yl-pyridin-2-ylamino)-8H-pyrido[2,3-d]pyrimidin-7-one hydrochloride]	> 5
CC(=O)c1cc2cnc(Nc3ccc(N4CCNCC4)cn3)nc2n(C2CCCC2)c1=O [Example 33, 6-Acetyl-8-cyclopentyl-2-(5-piperazin-1-yl-pyridin-2-ylamino)-8H-pyrido[2.3-d]pyrimidin-7-one hydrochloride]	> 5
Cc1c(Br)c(=O)n(C2CCCC2)c2nc(Nc3ccccn3)ncc12 [Example 37, 6-bromo-8-cyclopentyl-5-methyl-2-(pyridin-2-ylamino)-8H-pyrido[2,3-d]pyrimidin-7-one]	> 5
O=c1c(Br)cc2cnc(Nc3ccccn3)nc2n1C1CCCC1 [Example 38, 6-Bromo-8-cyclopentyl-2-(Pyridin-2-ylamino)-8H-pyrido[2,3-]pyrimidin-7-one]	> 5
COCCN(CCOC)c1ccc(Nc2ncc3c(C)c(Br)c(=O)n(C4CCCC4)c3n2)nc1 [Example 54, 2-{5-[Bis-(2-methoxy-ethyl)-amino]-pyridin-2-ylamino}-6-bromo-8-cyclopentyl-5-methyl-8H-pyrido[2,3-d]pyrimidin-7-one]	> 5
CC(C)n1c(=O)ccc2cnc(Nc3ccc(N4CCNCC4)cn3)nc21 [Example 57, 8-isopropyl-2-(5-piperazin-1-yl-pyridin-2-ylamino)-8H-pyrido[2.3-d]pyrimidin-7-one]	> 5
CC(=O)c1c(C)c2cnc(Nc3ccc(N4CCN(C)CC4)cn3)nc2n(C2CCCC2)c1=O [Example 72, 6-Acetyl-8-cyclopentyl-5-methyl-2-[5-(4-methyl-piperazin-1-yl)-pyridin-2-ylamino]-8H-pyrido[2,3-d]pyrimidin-7-one]	> 5
CC(=O)c1c(C)c2cnc(Nc3ccc(N4CCC(N)C4)cn3)nc2n(C2CCCC2)c1=O (stereo not shown) [Example 74, 6-Acetyl-2-[5-(3-amino-pyrrolidin-1-yl)-pyridin-2-ylamino]-8-cyclopentyl-5-methyl-8H-pyrido[2,3-d]pyrimidin-7-one]	> 5
CC(=O)c1c(C)c2cnc(Nc3ccc(N4CCCNCC4)cn3)nc2n(C2CCCC2)c1=O [Example 81, 6-Acetyl-8-cyclopentyl-2-(5-[1,4]diazepan-1-yl-pyridin-2-ylamino)-5-methyl-8H-pyrido[2,3-d]pyrimidin-7-one]	> 5
CC(=O)c1c(C)c2cnc(Nc3ccccn3)nc2n(C2CCCC2)c1=O [Example 82, 6-Acetyl-8-cyclopentyl-5-methyl-2-(pyridin-2-ylamino)-8H-pyrido[2,3-d]pyrimindin-7-one]	> 5
Cc1cc(=O)n(C2CCCC2)c2nc(Nc3ccc(N4CCNCC4)cn3)ncc12 [Example 84, 8-Cyclopentyl-5-methyl-2-(5-piperazin-4-yl-pyridin-2-ylamino)-8H-pyrido[2,3-d]pyrimidin-7-one]	> 5
CC(=O)c1c(C)c2cnc(Nc3ccc(N4CC(C)NC(C)C4)cn3)nc2n(C2CCCC2)c1=O (stereo not shown) [Example 95, 6-Acetyl-8-cyclopentyl-2-[5-(3,5-dimethyl-piperazin-1-yl)-pyridin-2-ylamino]-5-methyl-8H-pyrido[2,3-d]pyrimidin-7-one]	> 5
CC(=O)c1c(C)c2cnc(Nc3ccc(N4CCOCC4)cn3)nc2n(C2CCCC2)c1=O [Example 100, 6-Acetyl-8-cyclopentyl-5-methyl-2-(5-morpholin-4-yl-pyridin-2-ylamino)-8H-pyrido[2,3-d]pyrimidin-7-one]	> 5
CC(=O)c1c(C)c2cnc(Nc3ccc(N4CCCCC4)cn3)nc2n(C2CCCC2)c1=O [Example 105, 6-Acetyl-8-cyclopentyl-5-methyl-2-(3,4,5,6-tetrahydro-2H-[1,3′]bipyridinyl-6′-ylamino)-8H-pyrido[2,3-d]pyrimidin-7-one]	> 5
CCOCCc1cc2cnc(Nc3ccc(N4CCNCC4)cn3)nc2n(C2CCCC2)c1=O [Example 108, 8-Cyclopentyl-6-(2-ethoxy-ethyl)-2-(5-piperazin-1-yl-pyridin-2-ylamino)-8H-pyrido[2,3-d]pyrimidin-7-one]	> 5
